{"source": "patent US6596319B2", "about": "“Immunomodulating compositions for treatment of immune system disorders” (Lorus Therapeutics Inc., priority 2001, dated 2003)", "tested_on": "lymphocytes", "assay": "Stimulation of lymphocyte-mediated cytotoxic function", "assay_type": "cell-based, human", "settings": "optimal stimulating concentration of IL-2", "from_the_text": "These indicators of immune function also can be modulated in cancer patients treated with different biological response modifying agents, such as IFN or IL-2.\n2. Stimulation of lymphocyte-mediated cytotoxic function and comparison with an optimal stimulating concentration of IL-2: […]"}
{"substance": "IL-2: interleukin-2, prototypic stimulator of lymphocyte cytotoxic function", "values": [{"measurement": "Lymphocyte-mediated cytotoxic function", "result": 472.5, "unit": "Lytic Units"}]}
